Yeast UUG start = modulators of start codon recognition fidelity in yeast. S. cerevisiae UUG-firefly luciferase reporter, luminescence/redox ratio. activity score, % at 18.7 µM. 0.13% of 350,000 active. AID 602363;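 active = replicate mean at a twofold rise or more, about +100% in these data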;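 also: firefly luciferase made from a UUG start codon reports start codon fidelity; reporter light over untreated wells divided by growth signal over untreated wells; some hits fall short of that in this replicate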
E-selectin induc = induces E-selectin expression in human endothelial cells | P16581 | HUVEC E-selectin immunofluorescence imaging; normalized: neutral wells 0, TNF-alpha wells 100 | activation, % at 7.58 µM | 260,000 tested, 0.37% active | AID 686992;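 active = mean E-selectin-positive cell signal at least 10% of the positive control, reached in at least 60% of replicates, without over 20% cell loss; inconclusive = no rule given, readout overlaps actives, possibly toxicity-flagged; inactive = the rest, including those meeting only one limit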
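System: HUVEC / Compound: single concentration / Signal: immunofluorescence imaging / Read-out: percent E-selectin-positive cells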
Cneo AK release = causes C. neoformans cell lysis | adenylate kinase release luminescence, 4 h; normalised: neutral wells 0, clomiphene wells 100 | lysis activity, % at 15 µM | 360,000 tested, 0.2% active;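 active = mean lysis activity across replicates of at least 80%, whatever share of replicates individually reach that level; inactive = mean lysis activity below 80%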
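Material – Cryptococcus neoformans yeast cells · Quantity – 5 × 10^6 yeast cells/mL · Buffer or medium – YPD medium · Compound – single dose · Timing – 4 h static compound exposure, 37 °C, read 1 h post-reagent · Signal – adenylate kinase release luminescence · Read-out basis – lysis from increased AK signal · Benchmarks – Clomiphene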
DENV2 CPE rescue = protects cells from dengue virus 2 cytopathic effect. DENV2-infected cells, cytopathic effect rescue, plate reader. CPE inhibition, % at 9.99 µM. AID 651640. 350,000 tested, 1.7% active; in the data active = CPE inhibition above about 20%, passing the limit was not always enough; inconclusive = no clear call, values can overlap the other calls; tested in BHK-21 cells
Of the large screens only hits and unclear results are named; the others gave an inactive call. Only some compounds are listed: those with a hit (about 1.8% of all), similar ones and a draw of the others.

C[C@@H]1CN([C@H](C)CO)S(=O)(=O)c2ccc(C#Cc3ccncc3)cc2O[C@@H]1CN(C)C(=O)C1CC1	DENV2 CPE rescue 30
C[C@H](O)C#Cc1ccc2c(c1)O[C@H](CN(C)C(=O)C1CCCCC1)[C@@H](C)CN([C@@H](C)CO)S2(=O)=O	none (no result: E-selectin induc)
C[C@H](CO)N1C[C@H](C)[C@H](CN(C)C(=O)C2CC2)Oc2cc(C#Cc3ccncc3)ccc2S1(=O)=O	none
C[C@@H]1CN([C@@H](C)CO)S(=O)(=O)c2ccc(C#C[C@@H](C)O)cc2O[C@@H]1CN(C)C(=O)C1CCCCC1	Cneo AK release 105 (no result: E-selectin induc)
C[C@H](O)C#Cc1ccc2c(c1)O[C@H](CN(C)C(=O)C1CC1)[C@@H](C)CN([C@@H](C)CO)S2(=O)=O	DENV2 CPE rescue 57
C[C@@H]1CN([C@H](C)CO)C(=O)CCCn2cc(nn2)CO[C@@H]1CN(C)C(=O)C1CCCCC1	none (no result: Yeast UUG start, Cneo AK release, DENV2 CPE rescue)
COc1ccc(NC(=O)Nc2ccc3c(c2)C(=O)N([C@H](C)CO)C[C@@H](C)[C@H](CN(C)Cc2ccc(Oc4ccccc4)cc2)O3)cc1	none
C[C@@H]1CN([C@@H](C)CO)C(=O)c2cc(NC(=O)CCN3CCOCC3)ccc2O[C@H]1CN(C)Cc1ccncc1	E-selectin induc 32, DENV2 CPE rescue inconclusive (no result: Yeast UUG start)
C[C@@H]1CN([C@@H](C)CO)C(=O)c2cc(NC(=O)CCN3CCOCC3)ccc2O[C@@H]1CN(C)Cc1ccc(C(=O)O)cc1	Cneo AK release 95 (no result: E-selectin induc, DENV2 CPE rescue)
C[C@H](CO)N1C[C@H](C)[C@H](CN(C)Cc2ccc(C(=O)O)cc2)Oc2ccc(NC(=O)CCN3CCOCC3)cc2C1=O	none (no result: E-selectin induc)
C[C@H](CO)N1C[C@H](C)[C@@H](CN(C)Cc2ccc(C(=O)O)cc2)Oc2ccc(NC(=O)CCN3CCOCC3)cc2C1=O	none (no result: E-selectin induc)
C[C@H]1CN([C@@H](C)CO)C(=O)c2cc(NC(=O)CCN3CCOCC3)ccc2O[C@@H]1CN(C)Cc1ccc(C(=O)O)cc1	Cneo AK release 103 (no result: E-selectin induc, DENV2 CPE rescue)
C[C@H]1CN([C@@H](C)CO)C(=O)c2cc(NC(=O)CCN3CCOCC3)ccc2O[C@H]1CN(C)Cc1ccncc1	none (no result: Yeast UUG start)
C[C@H]1CN([C@@H](C)CO)C(=O)c2cc(-c3ccccc3F)cnc2O[C@@H]1CN(C)C(=O)c1cnccn1	none (no result: Yeast UUG start)
CS(=O)(=O)N1[C@@H]2Cn3c(ccc(-c4cccc(F)c4)c3=O)[C@H]1[C@@H](C(=O)N1CCOCC1)[C@@H]2CO	none (no result: Yeast UUG start)
CNC[C@H]1Oc2ccc(NS(=O)(=O)c3c(C)noc3C)cc2CC(=O)N([C@H](C)CO)C[C@@H]1C	none
Cc1ccc(NC(=O)CC(=O)Nc2ccc(C)c(C)c2)cc1C	none
Cc1ccc(NCCCCO)cc1C	E-selectin induc 142
C[C@@H]1CN([C@H](C)CO)C(=O)Cc2cc(NC(=O)C3CC3)ccc2O[C@@H]1CN(C)Cc1ccc(C(=O)O)cc1	none
CC(C)NC(=O)N(C)C[C@@H]1Oc2c(cccc2N(C)C)C(=O)N([C@H](C)CO)C[C@H]1C	DENV2 CPE rescue 27
CC(C)NC(=O)N(C)C[C@H]1Oc2c(cccc2N(C)C)C(=O)N([C@@H](C)CO)C[C@H]1C	DENV2 CPE rescue 22
C[C@@H]1CN([C@@H](C)CO)S(=O)(=O)c2ccc(-c3ccc(C(=O)N(C)C)cc3)cc2O[C@@H]1CN(C)C(=O)Nc1ccccc1F	none
COc1ccc(NC(=O)Nc2ccc3c(c2)C(=O)N([C@H](C)CO)C[C@H](C)[C@H](CN(C)C(=O)Nc2ccc4c(c2)OCO4)OCCCC[C@H](C)O3)cc1	none
NNC(=O)c1ccc(-c2ccccc2F)cc1	DENV2 CPE rescue 27 (no result: Yeast UUG start, E-selectin induc, Cneo AK release)
Cc1cc(F)ccc1-c1cc(C(=O)NCc2ccco2)[nH]n1	DENV2 CPE rescue 57
Cc1cc(F)ccc1-c1cc(C(=O)NCc2ccc(C(F)(F)F)cc2)[nH]n1	none
O=C(NC(=S)N1CCN(c2ccccc2)CC1)c1c(F)cccc1F	DENV2 CPE rescue 75
O=C(NC(=S)N1CCN(c2ccc([N+](=O)[O-])cc2)CC1)c1ccccc1	E-selectin induc 33 (no result: Yeast UUG start, Cneo AK release)
C[C@@H]1CN([C@@H](C)CO)C(=O)c2cc(/C=C/c3ccccc3)cnc2O[C@H]1CN(C)Cc1ccc2c(c1)OCO2	none
Cc1noc(C)c1S(=O)(=O)Nc1ccc2c(c1)C(=O)N([C@H](C)CO)C[C@@H](C)[C@@H](CN(C)CC1CCCCC1)OCCCC[C@H](C)O2	none
O=S1(=O)CCC(N=Cc2cc(Br)ccc2O)C1 (stereo not given)	Cneo AK release 85 (no result: E-selectin induc, DENV2 CPE rescue)
CC1(c2nnc(Cc3ccccc3)o2)CC(c2ccc([N+](=O)[O-])cc2)=NO1 (stereo not given)	DENV2 CPE rescue 31
COC(=O)C1=C(C)N(Cc2cccc(C(F)(F)F)c2)C(=NCc2ccc(C(F)(F)F)cc2)NC1c1ccccc1C(F)(F)F (stereo not given)	DENV2 CPE rescue 28 (no result: Yeast UUG start, Cneo AK release)
COC(=O)C1=C(C)N(Cc2ccccc2C(F)(F)F)C(=NCc2ccc(OC)cc2)NC1c1ccccc1 (stereo not given)	DENV2 CPE rescue 42 (no result: Yeast UUG start, Cneo AK release)
COC(=O)C1=C(C)N(Cc2ccccc2C(F)(F)F)C(=NCc2ccc(C(F)(F)F)cc2)NC1c1ccc(Cl)cc1 (stereo not given)	DENV2 CPE rescue 25 (no result: Yeast UUG start, Cneo AK release)
C[C@@H]1CCCCO[C@H](CN(C)S(=O)(=O)c2ccc(F)cc2)[C@@H](C)CN([C@H](C)CO)C(=O)c2cc(NC(=O)C3CCCCC3)ccc2O1	none
CCN(C(=O)CSc1nncn1-c1ccccc1)C1CCS(=O)(=O)C1 (stereo not given)	DENV2 CPE rescue 85 (no result: E-selectin induc)
CN(C(=O)CSc1nnc(-c2cccs2)n1C1CC1)C1CCS(=O)(=O)C1 (stereo not given)	DENV2 CPE rescue 37 (no result: E-selectin induc)
C[C@H]1CCCCO[C@H](CN(C)C(=O)CCCN(C)C)[C@@H](C)CN([C@@H](C)CO)C(=O)c2cc(NC(=O)c3ccncc3)ccc2O1	none
Cc1ccc(OCCOCCN2CCCC2)c(Br)c1	DENV2 CPE rescue 44 (no result: E-selectin induc)
Cc1cc(Br)ccc1OCCOCCN1CCCC1	none (no result: E-selectin induc)
C[C@H]1C=C(C(=O)N2CCN(Cc3ccccc3)CC2)O[C@@H](OCc2ccc(CO)cc2)C1	none (no result: E-selectin induc)
COc1ccc2c3c(n(C)c2c1)[C@H](CO)NCC31CCN(Cc2ccccc2F)CC1	DENV2 CPE rescue 31 (no result: Yeast UUG start, Cneo AK release)
COc1ccc2c3c(n(C)c2c1)[C@@H](CO)NCC31CN(Cc2cc(F)ccc2F)C1	DENV2 CPE rescue 31 (no result: Yeast UUG start, Cneo AK release)
COc1ccc2c3c(n(C)c2c1)[C@H](CO)NCC31CN(Cc2ccccc2F)C1	none (no result: Yeast UUG start, Cneo AK release)
Cc1nc2ccccc2nc(=O)c1NNc1ccccc1	none (no result: Yeast UUG start, E-selectin induc, Cneo AK release)
Cc1ccc2nc(=O)c(NNc3ccccc3)cnc2c1	E-selectin induc 178 (no result: Yeast UUG start, Cneo AK release)
C[C@@H]1CN([C@@H](C)CO)C(=O)c2cc(NC(=O)CCN3CCOCC3)ccc2O[C@H]1CN(C)Cc1ccc(-c2ccccc2)cc1	none (no result: Yeast UUG start)
NC(=O)C1CCN(c2nc(-c3ccccc3F)cs2)CC1	none
CN(C)c1ccccc1-c1csc(N2CCC(C(N)=O)CC2)n1	none (no result: DENV2 CPE rescue)
CS(=O)(=O)c1ccccc1-c1csc(N2CCC(C(N)=O)CC2)n1	E-selectin induc 41 (no result: Yeast UUG start, Cneo AK release, DENV2 CPE rescue)
NC(=O)C1CCN(c2nc(-c3ccccc3Br)cs2)CC1	DENV2 CPE rescue 80 (no result: Yeast UUG start, Cneo AK release)
Cc1cccc(S(=O)(=O)N[C@H]2CC[C@H](CCNC(=O)c3cnccn3)O[C@H]2CO)c1	none (no result: Yeast UUG start)

Screening results deposited in PubChem BioAssay by Broad Institute.
